Measured values reported in article PMC8220737, “Molecular docking, chemo-informatic properties, alpha-amylase, and lipase inhibition studies of benzodioxol derivatives” (BMC Chemistry, 2021).

Amino acid sequences for entries named in this document (tags omitted). Residues count along the entry.
UniProt P00690, 16-511 limits assumed: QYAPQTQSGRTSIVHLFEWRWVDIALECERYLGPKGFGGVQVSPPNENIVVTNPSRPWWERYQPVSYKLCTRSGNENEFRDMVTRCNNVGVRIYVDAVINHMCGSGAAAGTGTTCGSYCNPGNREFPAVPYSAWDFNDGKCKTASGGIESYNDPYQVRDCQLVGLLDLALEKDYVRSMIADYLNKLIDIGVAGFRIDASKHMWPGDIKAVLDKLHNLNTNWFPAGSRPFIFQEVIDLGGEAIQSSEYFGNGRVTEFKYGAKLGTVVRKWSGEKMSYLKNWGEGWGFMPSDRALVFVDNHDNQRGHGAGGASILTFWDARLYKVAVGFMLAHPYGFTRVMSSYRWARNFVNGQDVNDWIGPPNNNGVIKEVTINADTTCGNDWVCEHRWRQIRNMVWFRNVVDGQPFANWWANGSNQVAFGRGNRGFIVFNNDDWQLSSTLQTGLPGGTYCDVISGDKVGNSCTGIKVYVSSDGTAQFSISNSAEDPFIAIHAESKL
UniProt P00591, whole entry: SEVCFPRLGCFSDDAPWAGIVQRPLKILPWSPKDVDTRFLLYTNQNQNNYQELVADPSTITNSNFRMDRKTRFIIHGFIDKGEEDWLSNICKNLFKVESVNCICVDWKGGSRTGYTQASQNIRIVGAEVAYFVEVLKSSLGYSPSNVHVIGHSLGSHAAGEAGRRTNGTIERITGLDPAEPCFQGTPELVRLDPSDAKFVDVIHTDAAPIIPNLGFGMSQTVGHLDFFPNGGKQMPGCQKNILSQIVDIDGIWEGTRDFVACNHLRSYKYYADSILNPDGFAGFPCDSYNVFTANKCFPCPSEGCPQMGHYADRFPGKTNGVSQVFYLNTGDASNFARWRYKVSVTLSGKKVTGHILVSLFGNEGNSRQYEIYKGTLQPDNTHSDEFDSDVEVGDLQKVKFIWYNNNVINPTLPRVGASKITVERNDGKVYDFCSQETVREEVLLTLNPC

Experiments:
[1] = target: porcine pancreatic amylase enzyme (Sus scrofa, UniProt P00690); test: α-Amylase inhibitory activity (DNSA method); settings: five concentrations 1, 10, 50, 100, 500 µg/ml; acarbose positive control
[2] = target: porcine pancreatic lipase (Sus scrofa, UniProt P00591); test: Anti-lipase activity (PNPB hydrolysis); format: biochemical; settings: five dilutions 40, 100, 200, 300, 400 µg/ml; orlistat positive control

IC50 (µg/ml) α-amylase [1] [µg/mL]	IC50 (µg/ml) Lipase [2] [µg/mL]	SMILES
9.50 ± 0.56 (≈ 26.9 µM)	206.6 ± 1.96 (≈ 585 µM)	O=C(O)Cc1cc2c(cc1C(=O)c1ccc(Cl)cc1Cl)OCO2
3.94 ± 2.01 (≈ 10.7 µM)	> 400	COC(=O)Cc1cc2c(cc1C(=O)c1ccc(Cl)cc1Cl)OCO2

Converted amounts (≈) assume the structure as drawn.
